Experimental data taken from ChEMBL document CHEMBL5291721, “A preclinical secondary pharmacology resource illuminates target-adverse drug reaction associations of marketed drugs” (Nat Commun, 2023).

Sequences of proteins named here, by UniProt entry; tags and fusion partners are left off. A change or cut given only in a name is not applied to a line headed by its entry.
UniProt P18089, whole entry: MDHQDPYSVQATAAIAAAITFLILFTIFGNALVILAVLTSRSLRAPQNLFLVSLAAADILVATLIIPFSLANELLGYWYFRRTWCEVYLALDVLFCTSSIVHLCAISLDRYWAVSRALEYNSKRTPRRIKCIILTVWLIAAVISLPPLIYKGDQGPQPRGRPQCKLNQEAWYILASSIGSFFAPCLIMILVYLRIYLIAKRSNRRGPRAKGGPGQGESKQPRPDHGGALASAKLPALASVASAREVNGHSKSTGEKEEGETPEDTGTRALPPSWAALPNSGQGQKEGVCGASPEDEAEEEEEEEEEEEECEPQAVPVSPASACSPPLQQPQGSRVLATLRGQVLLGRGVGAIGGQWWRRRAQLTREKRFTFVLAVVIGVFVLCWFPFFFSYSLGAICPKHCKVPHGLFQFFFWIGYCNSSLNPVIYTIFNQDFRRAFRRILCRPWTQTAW
UniProt P35367, whole entry: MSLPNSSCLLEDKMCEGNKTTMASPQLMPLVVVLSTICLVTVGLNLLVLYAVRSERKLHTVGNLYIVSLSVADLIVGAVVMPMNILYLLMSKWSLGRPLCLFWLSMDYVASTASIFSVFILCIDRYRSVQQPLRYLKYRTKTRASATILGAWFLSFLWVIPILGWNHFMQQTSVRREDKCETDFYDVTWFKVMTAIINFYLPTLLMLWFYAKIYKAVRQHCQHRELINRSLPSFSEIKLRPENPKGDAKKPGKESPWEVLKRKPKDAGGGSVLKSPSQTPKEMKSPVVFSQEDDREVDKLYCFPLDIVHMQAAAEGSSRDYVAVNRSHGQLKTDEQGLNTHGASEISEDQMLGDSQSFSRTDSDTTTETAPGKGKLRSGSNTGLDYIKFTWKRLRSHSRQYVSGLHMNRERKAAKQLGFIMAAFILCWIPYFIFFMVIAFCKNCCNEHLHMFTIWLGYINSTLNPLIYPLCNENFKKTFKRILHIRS
UniProt P41145: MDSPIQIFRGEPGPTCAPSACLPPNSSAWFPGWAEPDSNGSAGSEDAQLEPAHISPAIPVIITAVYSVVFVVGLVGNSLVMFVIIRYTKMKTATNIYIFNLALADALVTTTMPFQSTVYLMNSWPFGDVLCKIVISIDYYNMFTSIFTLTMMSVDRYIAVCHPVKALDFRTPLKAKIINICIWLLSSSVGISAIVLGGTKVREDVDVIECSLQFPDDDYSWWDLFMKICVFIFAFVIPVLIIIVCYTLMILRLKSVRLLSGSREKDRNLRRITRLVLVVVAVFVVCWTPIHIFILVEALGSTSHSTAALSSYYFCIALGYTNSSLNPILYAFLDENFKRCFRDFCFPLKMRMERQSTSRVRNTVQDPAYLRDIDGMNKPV
UniProt P35462, whole entry: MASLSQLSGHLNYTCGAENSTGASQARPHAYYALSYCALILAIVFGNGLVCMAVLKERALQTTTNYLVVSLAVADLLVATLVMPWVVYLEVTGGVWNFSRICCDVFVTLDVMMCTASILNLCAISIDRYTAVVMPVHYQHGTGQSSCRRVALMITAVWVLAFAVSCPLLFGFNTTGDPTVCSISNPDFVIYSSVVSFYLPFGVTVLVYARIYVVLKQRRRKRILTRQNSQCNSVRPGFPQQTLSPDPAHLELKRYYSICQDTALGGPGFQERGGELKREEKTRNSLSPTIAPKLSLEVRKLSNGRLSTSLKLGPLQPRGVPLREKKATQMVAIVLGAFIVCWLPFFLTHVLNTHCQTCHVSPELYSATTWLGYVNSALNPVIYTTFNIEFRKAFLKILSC
UniProt Q12809: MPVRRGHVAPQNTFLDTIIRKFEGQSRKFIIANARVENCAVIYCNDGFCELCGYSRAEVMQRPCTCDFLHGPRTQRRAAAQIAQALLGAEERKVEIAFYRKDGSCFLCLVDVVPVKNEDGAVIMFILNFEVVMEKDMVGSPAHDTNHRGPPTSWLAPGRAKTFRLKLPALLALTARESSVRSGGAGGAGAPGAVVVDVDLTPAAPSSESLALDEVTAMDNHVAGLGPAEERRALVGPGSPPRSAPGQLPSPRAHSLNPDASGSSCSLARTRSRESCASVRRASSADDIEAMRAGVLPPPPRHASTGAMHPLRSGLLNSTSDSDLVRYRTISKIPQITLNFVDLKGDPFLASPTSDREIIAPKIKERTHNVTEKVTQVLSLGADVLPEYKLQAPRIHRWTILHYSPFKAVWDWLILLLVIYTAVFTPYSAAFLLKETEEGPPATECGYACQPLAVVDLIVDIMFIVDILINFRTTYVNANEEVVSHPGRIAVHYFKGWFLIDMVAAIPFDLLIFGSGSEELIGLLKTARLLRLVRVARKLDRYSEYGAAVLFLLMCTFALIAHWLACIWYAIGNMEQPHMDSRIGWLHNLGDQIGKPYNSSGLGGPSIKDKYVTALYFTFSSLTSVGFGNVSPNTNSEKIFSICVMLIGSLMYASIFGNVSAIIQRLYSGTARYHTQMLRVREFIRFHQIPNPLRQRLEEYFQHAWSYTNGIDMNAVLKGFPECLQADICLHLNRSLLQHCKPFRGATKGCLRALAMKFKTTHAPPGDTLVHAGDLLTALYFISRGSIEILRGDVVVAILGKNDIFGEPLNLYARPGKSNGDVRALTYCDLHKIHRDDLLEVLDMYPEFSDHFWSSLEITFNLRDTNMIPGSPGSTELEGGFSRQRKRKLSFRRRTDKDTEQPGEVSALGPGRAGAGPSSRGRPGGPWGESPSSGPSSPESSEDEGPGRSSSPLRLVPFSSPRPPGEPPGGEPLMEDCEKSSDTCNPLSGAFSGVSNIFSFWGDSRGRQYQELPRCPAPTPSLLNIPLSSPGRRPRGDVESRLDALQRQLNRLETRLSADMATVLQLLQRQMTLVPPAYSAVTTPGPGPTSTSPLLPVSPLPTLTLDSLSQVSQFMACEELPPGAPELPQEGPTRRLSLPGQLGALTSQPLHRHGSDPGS
UniProt P11229: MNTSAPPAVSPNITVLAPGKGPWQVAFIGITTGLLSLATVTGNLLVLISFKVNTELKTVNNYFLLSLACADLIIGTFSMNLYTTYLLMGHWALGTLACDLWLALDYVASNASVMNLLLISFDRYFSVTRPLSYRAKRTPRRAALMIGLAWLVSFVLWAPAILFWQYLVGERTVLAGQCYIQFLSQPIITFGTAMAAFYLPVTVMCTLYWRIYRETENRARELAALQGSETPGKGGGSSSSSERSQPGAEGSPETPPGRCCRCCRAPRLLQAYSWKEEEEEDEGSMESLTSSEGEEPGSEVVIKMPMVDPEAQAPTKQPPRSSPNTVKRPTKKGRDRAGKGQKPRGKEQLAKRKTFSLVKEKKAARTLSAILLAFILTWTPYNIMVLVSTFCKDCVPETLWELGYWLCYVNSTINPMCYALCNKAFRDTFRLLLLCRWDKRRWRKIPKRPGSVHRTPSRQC
UniProt P20309, whole entry: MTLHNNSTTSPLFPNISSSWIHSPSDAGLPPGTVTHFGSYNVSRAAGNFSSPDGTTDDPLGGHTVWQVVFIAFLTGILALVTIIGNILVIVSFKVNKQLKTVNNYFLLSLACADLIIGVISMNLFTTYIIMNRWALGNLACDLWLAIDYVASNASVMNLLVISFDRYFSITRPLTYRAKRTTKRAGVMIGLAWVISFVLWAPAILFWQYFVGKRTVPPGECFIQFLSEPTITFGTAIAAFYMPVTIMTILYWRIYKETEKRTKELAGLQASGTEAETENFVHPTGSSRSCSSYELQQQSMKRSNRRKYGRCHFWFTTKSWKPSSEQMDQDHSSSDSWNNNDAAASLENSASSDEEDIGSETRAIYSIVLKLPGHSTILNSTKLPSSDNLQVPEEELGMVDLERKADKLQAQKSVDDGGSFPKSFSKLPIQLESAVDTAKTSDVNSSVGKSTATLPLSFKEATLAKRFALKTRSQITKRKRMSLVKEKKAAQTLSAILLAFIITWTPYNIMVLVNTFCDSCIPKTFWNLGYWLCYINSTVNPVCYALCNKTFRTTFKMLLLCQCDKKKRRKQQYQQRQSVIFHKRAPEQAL

Legend:
[1] = molecular target: Alpha-2B adrenergic receptor (Homo sapiens, UniProt P18089)
Histamine H1 receptor = Histamine H1 receptor (Homo sapiens, UniProt P35367)
[2] = molecular target: Kappa-type opioid receptor (Homo sapiens, UniProt P41145)
D(3) dopamine receptor = D(3) dopamine receptor (Homo sapiens, UniProt P35462)
[3] = molecular target: Voltage-gated inwardly rectifying potassium channel KCNH2 (Homo sapiens, UniProt Q12809)
[4] = molecular target: Muscarinic acetylcholine receptor M1 (Homo sapiens, UniProt P11229); format: functional
[5] = molecular target: Muscarinic acetylcholine receptor M3 (Homo sapiens, UniProt P20309)
Also: assay procedure not described here.

CN1CCN(CC/C=C2/c3ccccc3Sc3ccc(S(=O)(=O)N(C)C)cc32)CC1 [THIOTHIXENE]
AC50 [1]: 0.078 µM
AC50 (Histamine H1 receptor): 0.036 µM

COc1ccc2c3c1O[C@H]1[C@@H](O)C=C[C@H]4[C@@H](C2)N(C)CC[C@@]341 [CODEINE]
AC50 [2]: 4.94 µM

CC(C)(C)NCC(O)COc1cccc2c1SCCC2 (configuration not stated) [TERTATOLOL]
AC50 (D(3) dopamine receptor): > 30 µM

C1CCC(C(CC2CCCCN2)C2CCCCC2)CC1 (configuration not stated) [PERHEXILINE]
AC50 [3]: 3.5 µM

CN(CCCN1c2ccccc2CCc2ccccc21)CC(=O)c1ccc(Cl)cc1 [LOFEPRAMINE]
AC50 [4]: 4.3 µM

CC(C)[N+]1(C)[C@@H]2CC[C@H]1C[C@@H](OC(=O)C(CO)c1ccccc1)C2 (some centres not stated) [IPRATROPIUM]
AC50 [5]: 0.0017 µM
